Test results reported in patent US20220204649A1 (SYSMEX, published 2022).

Key:
[1] = target: T1, HER2 (UniProt P04626, in part); experiment: SPR (Biacore 8K), as in Example 1
T1 construct: also called antigen of the anti-HER2 antibody
Procedure: (§1) Affinity of the prepared variants was measured using Biacore (registered trademark) 8K (GE Healthcare) in the same manner as in Example 1.

[2] = target: T1, HER2; experiment: SPR (Biacore 8K), Example 3, as in Example 1
Procedure: as §1

- Kd [1]: 0.0278 nM
- Kd [2]: 0.0606 nM
B1: 82B, 83, 84 variant of humanized anti-HER2 antibody (Fab) (Fab, V domains shown)
VH: [about 120 residues not printed]
VL: DIQMTQSPSSLSASVGDRVTITCRASQDVNTAVAWYQQKPGKAPKLLIYSASFLYSGVPSRFSGSRSGTDFTLTISSLQPEDFATYYCQQHYTTPPTFGQGTKVEIKR
notes: Kabat 83 is already Arg in the wild-type heavy chain; also called Heavy chain 82B, 83, 84 variant
